Assays:
inducible NO synthase [1] = biological target: T1, inducible NO synthase (Mus musculus, UniProt P29477); test: In vitro effect on the production of nitrites by murine macrophages J774A1; assay type: cell-based; details: J774A1 cells, LPS 1 μg/ml + IFN-γ 50 U/ml, 48 hours; read-out: IC50 Inducible NO synthase (formation of nitrites)
T1 construct: The NO synthase is isolated with an extraction buffer; endogenous in cells; sonicated, 100,000 g ultracentrifuged extract
Experimental: 3) In vitro effect on the production of nitrites by murine macrophages J774A1
This test is used to measure the inhibitory activity of the products on inducible NO synthase of culture cells. The cells are cultivated in DMEM medium (Dulbecco's Modified Eagle Medium) enriched with 10% foetal calf serum at 37° C. under an atmosphere of 5% CO2. For the experiments, they are distributed in 96-well plates (50,000 cells per well) and incubated in DMEM without phenol red containing 10% foetal calf serum with LPS (1 μg/ml) and murine IFN-γ(50 U/ml) in the presence or absence of the products to be tested. After 48 hours, the concentration of nitrites in the culture media, degradation products of nitrogen monoxide, is measured by a colorimetric method according to Green et al. (Analytical Biochemistry, 126, 131-138 (1982)). The results are expressed in terms of the IC50 value and are summarised in the table of paragraph 2 (third column of results entitled "inducible NO synthase, formation of nitrites").

inducible NO synthase [2] = biological target: T1, inducible NO synthase; test: In vitro effect on inducible NO synthase of murine macrophages J774A1 (formation of citrulline); assay type: biochemical; details: NO synthase isolated from LPS/IFN-γ activated J774A1 macrophages, pH 7.4
Experimental: 2) In vitro effect on inducible NO synthase of murine macrophages J774A1
Murine macrophages J774A1 produce a large quantity of nitrogen monoxide after activation by lipopolysaccharides (LPS) and interferon-γ(IFN-γ). The cells are cultivated in DMEM medium (Dulbecco's Modified Eagle Medium) enriched with 10% foetal calf serum at 37° C. under an atmosphere of 5% CO2 after activation by LPS and IFN-γ. They are seeded in a quantity of 5000 cells/cm^2 in 150 cm^2 bottles. The incubations are carried out in the presence of LPS (1g/ml) and murine IFN-γ (50 U/ml) in DMEM enriched with 10% foetal calf serum. The NO synthase is isolated with an extraction buffer (HEPES 50 mM, pH 7.4, dithiothreitol 0.5 mM, pepstatin A 1 mg/ml, leupeptin 1 mg/ml, soya trypsin inhibitor 1 mg/ml, antipain 1 mg/ml, and PMSF 10 mg/ml). After sonication in the extraction buffer at 4° C., the homogenised products are ultracentrifuged (100,000 g with 3,5-di-tert.butyl-4-hydroxybenzoic acid 4° C. for 1 h). The protocol is then identical to that of cerebellum NO synthase except for the composition of the incubation buffer (100 mM of HEPES, pH 7.4, 1 mM dithiothreitol, 2.5 mM of CaCl2, 10 M of tetrahydrobiopterin, FAD 10 μM, BSA 1 mg/ml, 2 mM of reduced NADPH). […]

## O=[N+]([O-])c1cccc2cn[nH]c12 [Example 2 A, 7-nitroindazole]
Inducible NO synthase [1]
  IC50: 51 µM
Inducible NO synthase [2]
  IC50: 25 µM
